Target: human PANK3 (Homo sapiens, UniProt Q9H999)
Experiment: PANK activity assay (radiochemical, without acetyl-CoA)
Type: biochemical

Protein sequences, listed by entry. Tags and fused reporters are not part of them.
UniProt Q9H999, whole entry: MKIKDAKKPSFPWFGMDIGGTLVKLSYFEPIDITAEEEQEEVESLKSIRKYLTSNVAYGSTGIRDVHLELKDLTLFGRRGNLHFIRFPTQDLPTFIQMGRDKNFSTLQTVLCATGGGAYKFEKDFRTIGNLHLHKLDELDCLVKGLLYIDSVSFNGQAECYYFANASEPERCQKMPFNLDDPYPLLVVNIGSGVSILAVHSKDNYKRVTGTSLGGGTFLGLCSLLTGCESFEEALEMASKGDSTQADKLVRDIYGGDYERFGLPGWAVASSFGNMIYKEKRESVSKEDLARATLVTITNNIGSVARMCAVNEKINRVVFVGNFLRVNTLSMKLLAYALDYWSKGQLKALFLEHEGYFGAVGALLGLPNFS

CC(C)c1ccc(NC(=O)N2CCN(c3ccc(C#N)cn3)CC2)cc1
type of PANK3 inhibition with respect to ATP (ATP varied 0–125 μM): uncompetitive
type of PANK3 inhibition with respect to pantothenate (pantothenate varied 0–180 μM): noncompetitive
IC50 (read-out: IC50 (PANK3), without acetyl-CoA, 2.5 mM ATP, 45 μM pantothenate): 1100 nM

Source: publication PMC6199309, “A therapeutic approach to pantothenate kinase associated neurodegeneration” (Nature Communications, 2018)
